Assay results published in patent US7696185B2, “Peptidomimetic inhibitors of PSMA, compounds comprising them, and methods of use” (Cancer Targered Technology LLC, priority 2006, dated 2010).

Sequences of proteins named here, by UniProt entry; tags and fusion partners are left off.
UniProt Q04609, whole entry: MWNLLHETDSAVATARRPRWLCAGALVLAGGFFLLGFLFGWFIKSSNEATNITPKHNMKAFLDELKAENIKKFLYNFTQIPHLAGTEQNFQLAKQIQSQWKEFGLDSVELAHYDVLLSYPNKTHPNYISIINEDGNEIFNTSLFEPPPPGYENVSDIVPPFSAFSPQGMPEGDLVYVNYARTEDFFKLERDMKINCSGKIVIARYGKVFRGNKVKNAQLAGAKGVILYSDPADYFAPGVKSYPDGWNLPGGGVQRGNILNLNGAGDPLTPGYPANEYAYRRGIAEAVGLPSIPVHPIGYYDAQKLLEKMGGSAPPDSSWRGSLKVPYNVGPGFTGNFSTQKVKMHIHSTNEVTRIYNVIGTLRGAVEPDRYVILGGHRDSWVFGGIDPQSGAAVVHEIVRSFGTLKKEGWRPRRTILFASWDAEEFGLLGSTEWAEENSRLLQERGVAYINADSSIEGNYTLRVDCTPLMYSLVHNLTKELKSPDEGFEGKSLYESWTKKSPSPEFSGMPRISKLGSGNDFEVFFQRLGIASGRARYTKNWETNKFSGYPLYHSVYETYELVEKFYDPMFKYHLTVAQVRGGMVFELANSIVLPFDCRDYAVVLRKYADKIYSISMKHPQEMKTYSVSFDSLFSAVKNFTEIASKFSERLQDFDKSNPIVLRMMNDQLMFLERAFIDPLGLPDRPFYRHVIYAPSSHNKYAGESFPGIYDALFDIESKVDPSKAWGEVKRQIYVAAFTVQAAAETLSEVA

Biological target: T1, purified PSMA (Homo sapiens, UniProt Q04609)
T1 construct: against purified PSMA from LNCaP cells by our published method; endogenous in cells; host or cells: LNCaP cells
Experiment: PMSA Inhibition Assay (HPLC, PAB-Glu-γ-Glu substrate)
Type: biochemical
Conditions: purified PSMA from LNCaP cells
Protocol: Adapted from, Maung, J.; Mallari, J. P.; Girtsman, T. A.; Wu, L. Y.; Rowley, J. A.; Santiago, N. M.; Brunelle, A.; Berkman, C. E. Probing for a Hydrophobic a Binding Register in Prostate-Specific Membrane Antigen with Phenylalkylphosphonamidates. […] Med. Chem. 2004, 12, 4969.
Working solutions of the substrate (N-[4-(phenylazo)benzoyl]-glutamyl-g-glutamic acid, PAB-Glu-γ-Glu) and all inhibitors were made in TRIS buffer (50 mM, pH 7.4). Working solutions of purified PSMA were appropriately diluted in TRIS buffer (50 mM, pH 7.4) to provide from 15% to 20% conversion of substrate to product in the absence of inhibitor. A typical incubation mixture (final volume 250 μL) was prepared by the addition of either 25 μL of an inhibitor solution or 25 μL TRIS buffer (50 mM, pH 7.4) to 175 μL TRIS buffer (50 mM, pH 7.4) in a test tube. A volume of the 25 μL PAB-Glu-γ-Glu (100 μM) was added to the above solution. […] An 85 μL aliquot of the resulting supernatant was subsequently quantified by HPLC. IC50 values were calculated using KaleidaGraph 3.6 (Synergy Software).
PABGγG and its hydrolytic product (PABG) were separated and quantified using an analytical reversed-phase HPLC column (Lichrosphere C18 5 μm, 150×4.6 mm; Phenomenex, Torrence, Calif.) with a mobile phase consisting of ACN/potassium phosphate [25 mM, pH 2.0 (adjusted with H3PO4)] at a respective volume ratio of 40:60.

## O=C(O)CCC(CP(=O)(O)O)C(=O)O (stereo not shown) [Compound 2-PMPA, 2-PMPA, reference compound]
  inhibitory potency / affinity for PSMA (in words): superior inhibitory potency
